Experiment [1] is described as follows: Glucose-dependent fluorescence emission intensity spectra of conjugates (Nanodrop3300). The class given is biochemical. Particulars: isochromic / hypsochromic / bathochromic. From the text:
Semi-synthetic FRSs were engineered by site-specifically attaching thiol-reactive, environmentally sensitive fluorophores that respond to ligand-mediated conformational changes. Identification of FRS candidates that are useful for sensing applications comprises three steps: • 1. Cysteine scan. Mutant glucose-binding proteins containing single cysteines are constructed for site-specific attachment of thiol-reactive fluorophores. […] Candidate positions fall into three classes: endosteric, replacing a residue that contacts the ligand directly; peristeric, located at the rim of the binding site; allosteric (Marvin et al. 1997 Proc Natl Acad Sci USA, 94, 4366-71; Marvin 1998 J Am Chem Soc, 120, 7-11), located outside the binding site at sites that undergo local structural changes in concert with the hinge-bending motion. • 2. Fluorophore screening. Thiol-reactive, environmentally sensitive fluorophores are attached to each cysteine mutant prepared in step 1. • 3. Evaluation of the glucose-mediated change of all the fluorescent conjugates prepared in step 2. Responses to ligand binding in which there is both a change in fluorescence emission intensity and spectral shape was essential for chemometric applications, because such changes enable ratiometric measurements. Changes in spectral shape typically are accompanied by a shift in the wavelength of the emission intensity maxima. […]

Experiment [2] in a line: Glucose binding: isothermal fluorescence titrations, ratiometric (appKd) and monochromatic (trueKd) fits. Particulars: fit of ratiometric emission signal (figure legends). From the text:
2 For a single glucose-binding site, the fractional saturation is given by
[formula] where ^apoIλ2 and ^satIλ2 are the emission intensities of the monochromatic signal at wavelength λ2 of the ligand-free and ligand-bound protein, respectively.

The Kd is the concentration at which binding is half-saturated. Higher therefore signals weaker binding.

For “16C⋅Acrylodan: E. coli GGBP F16C mutant Acrylodan conjugate”, the “direction of emission wavelength shift upon glucose binding” value in experiment [1] is given as “hypsochromic”. Besides, the affinity in experiment [2], expressed as Kd, was 1000 µM.

On to “16C⋅Badan: E. coli GGBP F16C mutant Badan conjugate”, for which, in experiment [1], the “direction of emission wavelength shift upon glucose binding” value is on record as “hypsochromic”. Moreover, in experiment [2], binding was characterised by a dissociation constant (Kd) of 400 µM.

For the origin of these results see patent US11156615B2 (priority 2015, dated 2021).
